The experiment concerns the target T1, Hco-ACC-2 WT channel (Haemonchus contortus, UniProt A0A219KWM7).
T1 sequence (A0A219KWM7 18-443): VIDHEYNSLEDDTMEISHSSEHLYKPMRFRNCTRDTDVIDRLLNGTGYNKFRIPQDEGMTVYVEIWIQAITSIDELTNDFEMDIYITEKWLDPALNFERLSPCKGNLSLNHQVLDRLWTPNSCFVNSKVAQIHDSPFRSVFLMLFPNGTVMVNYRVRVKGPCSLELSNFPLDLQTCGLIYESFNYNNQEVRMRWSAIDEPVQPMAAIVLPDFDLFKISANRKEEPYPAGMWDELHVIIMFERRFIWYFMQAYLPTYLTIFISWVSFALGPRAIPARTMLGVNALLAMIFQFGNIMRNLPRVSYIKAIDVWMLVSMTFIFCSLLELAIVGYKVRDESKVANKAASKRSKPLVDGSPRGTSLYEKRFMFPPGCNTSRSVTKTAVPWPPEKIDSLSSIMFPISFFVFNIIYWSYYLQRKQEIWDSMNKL
In words: cell-based. The following applies: EC50 ± standard error, n ≥ 5 oocytes.

Regarding `CC(=O)OCC[N+](C)(C)C` [Acetylcholine], the EC50 (commonly the concentration that produces a half-maximal response) worked out at 21 ± 1 µM.

The values above are taken from article PMC6287471 (International Journal for Parasitology: Drugs and Drug …, 2018).
